The values that follow are results of earlier work, collected in patent publication US20200306252A1, “COMPOSITION FOR PREVENTING AND/OR TREATING DEMENTIA” (priority 2019, published 2020).

The conditions of the series: in vivo.

As for “bapineuzemab: Pfizer's (BACE) inhibitor, failed clinical trial Phase III in 2012”, the “clinical trial Phase III outcome” value is on record as “no clinical benefit”.
